The values that follow are results of earlier work, collected in patent US20210361598A1, “COMPOUNDS FOR PREVENTION AND TREATMENT OF POST-INTENSIVE CARE COGNITIVE DYSFUNCTION AND COGNITIVE DYSFUNCTION RESULTING FROM RESPIRATORY DISTRESS” (Abrexa Pharmaceuticals, Inc., priority 2020, published 2021).

The test system of the series is post-surgical cognitive dysfunction. The conditions noted are these: literature reports, after surgery; cited from earlier work.

Take “Pexelizumab: a humanized monoclonal antibody used as an immunosuppressive drug”: the “Effect on post-surgical cognitive dysfunction” value was “had no effect”.
